The values below come from article PMC4182301, “Design, synthesis and SAR exploration of tri-substituted 1,2,4-triazoles as inhibitors of the annexin A2–S100A10 protein interaction” (Bioorganic & Medicinal Chemistry, 2014).

Amino acid sequences for entries named in this document (tags omitted).
UniProt P60903, whole entry: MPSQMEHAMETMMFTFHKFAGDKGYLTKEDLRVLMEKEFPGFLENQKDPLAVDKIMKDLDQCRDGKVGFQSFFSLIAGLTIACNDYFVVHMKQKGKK

For experiment [1], the target named is T1, native complex between annexin A2 and S100A10 (Homo sapiens, UniProt P60903).
T1 construct: the native complex of the two full-length proteins, AnxA2 and S100A10; endogenous in cells; host or cells: MDA-MB-231 human breast cancer cells (lysate)
Description: Co-immunoprecipitation of AnxA2 with S100A10 (native complex) from cell lysates, Western blot. It is filed as binding. As to conditions: MDA-MB-231 cell lysates preincubated with compound or peptide; compared with vehicle. On the procedure: In the presence of the isolated synthetic peptide AnxA2(1–14), the amount of AnxA2 in the S100A10 immunoprecipitate is reduced, due to it competing with the binding between native AnxA2 and S100A10.
Figure 5 Co-immunoprecipitation of AnxA2 with S100A10. S100A10 was immunoprecipitated from cell lysates and co-immunoprecipitation of AnxA2 was assessed by Western blotting. The amount of AnxA2 in the S100A10 immunoprecipitate was quantified using Scion Image Software and expressed as a percentage of the vehicle-treated sample (n = 4 ± SE).
Human MDA-MB-231 breast cancer cells were extracted in 50 mM Tris–HCl (pH 8.0) buffer containing 150 mM sodium chloride and 1% (v/v) NP-40. Lysates were centrifuged at 17,000×g and incubated at 4 °C for 16 h with 10 μL S100A10 antibody (BD transduction Laboratories) and 50 μL protein A/G agarose (Alpha Diagnostic International Inc). […] The supernatant was then analyzed by SDS–PAGE after which the gel was transferred to a nitrocellulose filter. […]

The target in experiment [2] is interaction between the AnxA2 N-terminus and S100A10 (Homo sapiens, UniProt P60903). Description: Fluorescence screening assay (FRET competitive binding, Cy3-AnxA2(Ac1–14) peptide / Cy5-S100A10). As to conditions: Table 1, 12 observations. On the procedure:
Assessment of compound activity was performed as described.[35] Briefly, a Cy5-labelled S100A10 tracer was developed and binding of a Cy3-labelled AnxA2(Ac1–14) peptide ligand was assessed using a fluorescence resonance energy transfer readout. Assays were carried out in Nunc black non-treated 384-well plates at 20 °C in 50 μL buffer C. All incubations were performed in quadruplicate. Compounds, peptide and buffer controls were added to the wells in a 10 μL volume in 5% DMSO. Cy5-labelled S100A10 tracer (407 nM) and Cy3-labelled AnxA2(Ac1–14) peptide ligand (1.33 μM) were pre-incubated for 5 min at 20 °C and 40 μL of the preformed complex was then added to the wells and mixed for 10 s to yield a final DMSO concentration of 1%. After 5 min incubation at 20 °C, readings were taken on a Perkin Elmer Envision plate reader by excitation at 488 nm and emission at 695 nm. Fluorescence resonance energy transfer (FRET) was calculated by subtracting the sum of the fluorescence emission of S100A10-Cy5 and AA2(1–14)-Cy3 individually from that measured for the co-incubated partners. Compound binding was calculated as percentage of non-treated control and data were analysed by non-linear regression (dose response—variable slope with bottom and top parameters fixed at 0% and 100%, respectively) using Graphpad Prism Software to determine the IC50 of binding (primary assay).

As to `CC[C@H](C)[C@H](NC(=O)[C@H](CCC(=O)O)NC(=O)[C@H](Cc1c[nH]cn1)NC(=O)[C@@H](NC(=O)[C@@H](NC(=O)[C@H](CO)NC(C)=O)[C@@H](C)O)C(C)C)C(=O)N[C@@H](CC(C)C)C(=O)N[C@@H](CS)C(=O)N[C@@H](CCCCN)C(=O)N[C@@H](CC(C)C)C(=O)N[C@@H](CO)C(=O)N[C@@H](CC(C)C)C(=O)N[C@@H](CCC(=O)O)C(=O)NCC(=O)O` [Peptide, reference compound], the “amount of AnxA2 in the S100A10 immunoprecipitate” value in experiment [1] is “reduced”. Moreover, in experiment [2], the half-inhibitory concentration (IC50) came out at 1200 nM.
